Results reported in patent publication US9040501B2, “Compositions and methods for treating cancer” (Eisai Inc., priority 2009, dated 2015).

Amino acid sequences for entries named in this document (tags omitted). A change or cut given only in a name is not applied to a line headed by its entry.
UniProt P32320: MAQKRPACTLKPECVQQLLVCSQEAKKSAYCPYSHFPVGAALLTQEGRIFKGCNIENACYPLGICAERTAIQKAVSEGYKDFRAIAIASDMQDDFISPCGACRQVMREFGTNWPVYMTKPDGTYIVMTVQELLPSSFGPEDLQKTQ

Target: cytidine deaminase (CDA) (Homo sapiens (Human), UniProt P32320)
Conditions: presence of CDA, after 2 hours

Nc1ncn([C@H]2C[C@H](O)[C@@H](CO)O2)c(=O)n1 [decitabine, 5-aza-2′-deoxycytidine]
concentration of decitabine: ~0 % control
